Compounds with a hit are over-represented: about 2.2% of the library has one in this group of screens.
Yeast UUG start: modulators of yeast start codon fidelity, primary screen, whole organism, S. cerevisiae, single point, plate reader | AID 602363, 2012 | S. cerevisiae UUG-firefly luciferase reporter, luminescence/redox ratio | activity score, % at 18.7 µM | hit rate 0.13% among 350,000;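 active = replicate mean at a twofold rise or more, about +100% in these data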;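 also: firefly luciferase made from a UUG start codon reports start codon fidelity; reporter light over untreated wells divided by growth signal over untreated wells; some hits fall short of that in this replicate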
SIRT5 block: inhibitors of human sirtuin-5 desuccinylase. Purified SirT5, succinyl-peptide AMC, trypsin-coupled fluorescence. inhibition, % at 15 µM. Q9NXA8. 1.1% of 330,000 active; in the data active means inhibition above about 15%
FGF22 binding: binders of recombinant human FGF22 by thermal shift; SYPRO orange fluorescence; percent of sucrose octasulfate shift, DMSO zero; activity (Tm shift, normalised), % at 9.99 µM; 1.5% of 340,000 active; AID 651658;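 active means mean Tm shift, scaled 0 neutral to 100 positive control, at about 1.3% or above, every replicate too, limit read from the data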
PDI inh: blocks human protein disulfide isomerase activity | inhibition, % at 10 µM | P07237 | 0.052% of 350,000 active | PDI insulin aggregation turbidity, A650, 90 min;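 active means mean inhibition across replicates of 30% or more, whatever share of single replicates reach that level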
ERp5 inh: inhibitors of human ERp5; Q15084; inhibition, % at 9.99 µM; 0.05% of 350,000 active; ERp5 insulin aggregation, absorbance 650 nm, 90 min;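 active means mean replicate inhibition above about 25%, with every replicate also reaching it, limit read from the data, passing the limit was not always enough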
S100A4 inh HTS: S100A4-myosin IIA interaction inhibition | inhibition, % at 10.7 µM | 0.14% of 360,000 active | S100A4/TAMRA-MyoIIA peptide fluorescence polarization | P26447;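 active means mean inhibition of at least 70% across replicates, with every replicate also reaching that level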
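Material: S100A4 monomer (human). Medium: Calcium-containing HEPES buffer, pH 7.2. Probe or stimulus: labelled myosin peptide probe, 5 nM. Compound dosing: one concentration per compound. Timing: polarization read 5 min after assay mix addition, stable 5–60 min. Benchmarks: DMSO as neutral control, TFP as positive control.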
Large screens that a line does not name were inactive.

N#C[C@H]1[C@H](c2ccccc2-c2ccccc2F)[C@@H](CO)N1C(=O)Cc1ccccc1	SIRT5 block 18 (no result: Yeast UUG start, PDI inh)
CC=Cc1ccc2n(c1=O)C[C@H]1[C@H](CO)[C@@H](C(=O)NC3CCCC3)N(Cc3ccccc3)[C@@H]21 (mixture of isomers)	none (no result: Yeast UUG start, PDI inh)
COc1ccc(/C=C(\NC(=O)c2ccc(C)cc2)C(=O)NCCN2CCOCC2)cc1	FGF22 binding 1.4 (no result: SIRT5 block)
CCO[C@@H]1OC(C(=O)N2CCN(Cc3ccc4c(c3)OCO4)CC2)=C[C@H](C(C)(C)C)[C@H]1CCCO	none (no result: PDI inh)
CCOc1[nH]n(-c2ccccc2)c(=O)c1C=Nc1ccc(C)cc1	SIRT5 block 18 (no result: Yeast UUG start)
Cc1ccc(S(=O)(=O)NCC(=O)NCC(=O)OCC(=O)NC(=O)NC(C)(C)C)cc1C	FGF22 binding 43 (no result: Yeast UUG start)
Cc1ccc(S(=O)(=O)NCC(=O)NCC(=O)NCCc2ccccc2F)cc1C	none
O=C(c1cc(F)ccc1F)C1CCCN(C(=O)CCN2CCCCO2)C1 (stereo not drawn)	FGF22 binding 43
Cc1ccc(-c2ccc(SCC(=O)N3CCN(c4ccccc4)CC3)nn2)cc1	none (no result: Yeast UUG start, SIRT5 block, FGF22 binding, ERp5 inh, S100A4 inh HTS)
O=C(CSc1ccc(-c2ccccc2)nn1)N1CCN(c2ccccc2)CC1	SIRT5 block 18
CO[C@@H]1CC[C@H]2CCN(C)C(=O)C[C@H](c3ccccc3)CN(C)C(=O)c3cccc(C#N)c3OC[C@H]1O2	none (no result: Yeast UUG start, PDI inh)
O=C1CCCC2=C1C(c1ccc(Br)cc1)c1c([nH]c(=S)[nH]c1=O)N2 (stereo not drawn)	none (no result: SIRT5 block, FGF22 binding, ERp5 inh, S100A4 inh HTS)
O=c1[nH]c(=S)[nH]c2c1C(c1ccc(Br)cc1)c1c([nH]c(=S)[nH]c1=O)O2	SIRT5 block 67
O=C(O)CCC(=O)Nc1ccc(-c2nc3ccc(C(=O)c4ccccc4)cc3[nH]2)cc1	SIRT5 block 34
Cc1ccc2nc(-c3ccc(NC(=O)Cc4cccs4)cc3)[nH]c2c1	FGF22 binding 1.8
CCN(CC)CCN1C(=O)C(=O)/C(=C(/O)c2ccc(S(=O)(=O)N3CCOCC3)cc2)C1c1ccc(C)cc1 (stereo not drawn)	FGF22 binding 44 (no result: Yeast UUG start)
CCN(CC)CCN1C(=O)C(=O)/C(=C(/O)c2ccc(S(=O)(=O)N3CCOCC3)cc2)C1c1ccc(C(C)C)cc1 (stereo not drawn)	none
CC(C)CN(CC(C)C)S(=O)(=O)N1CCC(C(=O)NCc2ccc(F)cc2)CC1	none (no result: SIRT5 block, FGF22 binding, ERp5 inh, S100A4 inh HTS)
CC(C)CN(CC(C)C)S(=O)(=O)N1CCC(C(=O)NCCc2ccc(Cl)cc2)CC1	SIRT5 block 16
CCOC(=O)N1CCN(S(=O)(=O)c2c(C)nc3scc(C)n3c2=O)CC1	SIRT5 block 31
O=C(COC(=O)C1CCC(=O)N1)Nc1ccccc1Br (stereo not drawn)	FGF22 binding 43
COc1ccc(C(=O)COC(=O)C2CCC(=O)N2)cc1 (stereo not drawn)	SIRT5 block 17 (no result: Yeast UUG start)
O=C1CCC(C(=O)OCC(=O)c2ccccc2)N1 (stereo not drawn)	none
COC(=O)C[C@H]1CC[C@H]2[C@@H](COc3ccc(NS(=O)(=O)c4ccccc4F)cc3C(=O)N2C)O1	none (no result: Yeast UUG start, PDI inh)
O=c1c(Oc2ccccc2F)coc2cc(OCc3cnn(-c4ccccc4)c3)ccc12	FGF22 binding 43 (no result: Yeast UUG start)
C[C@@H]1CN([C@H](C)CO)C(=O)c2c(c3ccccc3n2C)-c2ccccc2CO[C@H]1CN(C)C(=O)[C@H](C)c1ccccc1	none (no result: Yeast UUG start, PDI inh)
CC1(NCc2ccc(Cl)cc2)COP(=O)(NCc2ccccc2)OC1 (stereo not drawn)	SIRT5 block 16
CCNC(=O)Nc1ccc2c(c1)C(=O)N(C)[C@@H]1CC[C@@H](CC(=O)NCCN3CCCC3)O[C@H]1CO2	none (no result: SIRT5 block, PDI inh, ERp5 inh, S100A4 inh HTS)
COCC#Cc1ccc2c(c1)O[C@H](CN(C)C(=O)NC(C)C)[C@@H](C)CN([C@H](C)CO)S2(=O)=O	none (no result: PDI inh)
COc1cc2c(c(OC)c1OC)CC(c1ccccc1)=C(c1ccccc1)CC2NC(=O)C(F)(F)F (stereo not drawn)	none (no result: Yeast UUG start, PDI inh)
COc1cc2c(cc1OC)C(NC(=O)C(F)(F)F)CNC2=O (stereo not drawn)	FGF22 binding 43 (no result: Yeast UUG start)
COC(=O)Cc1[nH]n(-c2nc3ccccc3s2)c(=O)c1C(C)=Nc1ccc(C)cc1	FGF22 binding 2.5 (no result: Yeast UUG start)
